# Measured values reported in article PMC10726352, “Discovery of KB-0742, a Potent, Selective, Orally Bioavailable Small Molecule Inhibitor of CDK9 for MYC-Dependent Cancers” (Journal of Medicinal Chemistry, 2023).
# Values joined by “and” are separate entries in the source; they are usually repeats but may differ in a detail not shown here. Identical values can stand only once. Like-named read-outs stand apart in the source and are kept apart here.
# How the values were obtained:
# [1] = Projection of human PK parameters; conditions: 70 kg body weight; IVIVE and allometry
# [2] = test system: MYC; conditions: 60 mg/kg p.o.
# [3] = test system: pSER2 (RNAP II Ser 2); conditions: 60 mg/kg p.o.
# [4] = test system: CTG-0869; conditions: CTG-0869, 60 mg/kg PO 3-days on, 4-days off
# [5] = test system: CTG-0437; conditions: CTG-0437, 60 mg/kg PO 3-days on, 4-days off
smiles,measurement,setting,value
"CCC(CC)c1cc(N[C@H]2CC[C@H](N)C2)n2nccc2n1 [Compound 28, [(1S,3S)-3-[[5-(1-Ethylpropyl)pyrazolo[1,5-a]pyrimidin-4-ium-7-yl]amino]cyclopentyl]ammonium Dichloride]",mean predicted human plasma clearance (Cl),[1],2.0 mL/min/kg and 2 mL/min/kg
same,MYC levels in tumor,[2]; 2 h post-terminal dose,significantly reduced
same,MYC levels in tumor,[2]; 8 h post-administration,no longer significantly different from vehicle
same,pSER2 levels in tumor,[3]; 2 h post-terminal dose,significantly reduced
same,pSER2 levels in tumor,[3]; 8 h post-administration,no longer significantly different from vehicle
same,TGI,[4],59%
same,TGI,[5],42%
